The chains behind the UniProt entries cited, without tags or fusion partners.
UniProt P41144, whole entry: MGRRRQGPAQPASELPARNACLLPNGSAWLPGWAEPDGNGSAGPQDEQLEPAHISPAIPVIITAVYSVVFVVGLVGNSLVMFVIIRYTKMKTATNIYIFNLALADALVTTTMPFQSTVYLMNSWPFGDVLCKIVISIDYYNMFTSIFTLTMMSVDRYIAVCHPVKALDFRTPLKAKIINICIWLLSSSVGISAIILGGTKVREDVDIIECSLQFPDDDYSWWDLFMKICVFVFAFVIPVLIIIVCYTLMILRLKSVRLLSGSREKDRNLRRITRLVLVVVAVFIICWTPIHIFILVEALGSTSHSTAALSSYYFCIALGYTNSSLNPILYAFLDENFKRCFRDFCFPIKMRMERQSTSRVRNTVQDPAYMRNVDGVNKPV

According to ChEMBL document CHEMBL3352357, “Synthesis and pharmacological evaluation of 5-pyrrolidinylquinoxalines as a novel class of peripherally restricted κ-opioid receptor agonists” (J Med Chem, 2014):

What was measured:
[1] = target: Kappa-type opioid receptor (Cavia porcellus, UniProt P41144); test: Displacement of [3H]U-69593 from kappa opioid receptor in guinea pig brain membranes after 2 hrs by scintillation counting analysis; assay type: cell membranes, Membrane
[2] = tested on: Mus musculus; test: Analgesic activity in male NMRI mouse assessed as inhibition of phenylquinone-induced writhing at 21.5 mg/kg, iv after 10 mins challenged with phenylquinone (reference value: 0%)
[3] = tested on: Mus musculus; test: Analgesic activity in male NMRI mouse assessed as inhibition of phenylquinone-induced writhing at 3.16 mg/kg, iv after 10 mins challenged with phenylquinone (reference value: 0%)
[4] = tested on: Mus musculus; test: Analgesic activity in male icv dosed NMRI mouse assessed as 16 mN von frey filaments-induced hyperalgesia treated after 5 mins challenged with mustard oil measured after 20 to 40 mins
[5] = tested on: Mus musculus; test: Analgesic activity in male icv dosed NMRI mouse assessed as 1 mN von frey filaments-induced referred allodynia treated after 5 mins challenged with mustard oil measured after 20 to 40 mins

Compound	Ki [1] [nM]	inhibition (INH) [2] [%]	inhibition (INH) [3] [%]	ED50 [4] [µg]	ED50 [5] [µg]
O=C(c1ccccc1)N1CCN(C(=O)Cc2ccc(Cl)c(Cl)c2)C2C(N3CCCC3)CCCC21 (stereo not given)	15				
O=C(Cc1ccc(Cl)c(Cl)c1)N1CCNC2CCCC(N3CCC(O)C3)C21 (racemic)		93	5.1	2.16	3.31
